scFv variants of Ab-95 (light chain) against a SARS-CoV-2 spike peptide

Target: peptide PDVDLGDISGINAS, taken from heptad repeat 2 (HR2) of SARS-CoV-2 spike.

The variants keep the heavy chain, the linker and the frameworks of Ab-95 (scFv order VH, a (GGGGS)3 linker, VL).
VH: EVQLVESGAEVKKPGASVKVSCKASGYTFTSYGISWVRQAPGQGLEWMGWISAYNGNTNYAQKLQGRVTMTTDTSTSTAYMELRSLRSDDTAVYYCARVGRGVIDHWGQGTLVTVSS
VL: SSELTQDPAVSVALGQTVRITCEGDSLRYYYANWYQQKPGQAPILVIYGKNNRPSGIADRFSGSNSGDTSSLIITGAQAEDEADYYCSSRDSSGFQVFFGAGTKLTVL

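Phage display of a naive human antibody library on the peptide gave the parent. The library (AAYL52) carries one to three amino acid substitutions per variant, with no insertions or deletions. The scFvs were displayed on barcoded MATa yeast, the peptide on MATalpha yeast. Pairs that bind mate more often; barcode pairs of the diploids are counted by sequencing. The ratio of observed to expected reads was calibrated, replicate by replicate, on BCL2-family standards whose Kd was known from biolayer interferometry. Mating was done three times.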

Each variant is given by its three light chain CDRs, as the data file delimits them; those of the parent are EGDSLRYYYAN, GKNNRPS, SSRDSSGFQVF. This list gathers variants with a substitution at F95 (VL, numbered from residue 1). Scale: log10 of Kd in nM, estimated from mating counts; low values are strong binders. Replicates are averaged; those with no signal do not enter the mean. Where no diploid with the target was found in that replicate, the entry reads "nd": below detection, most likely a poor binder, though not proof of it. In this assay the parent's reference entry averaged 2.31; its copy inside this library read 2.25. Background: pairings of library AAYL52 with three empty control strains gave a value in 28% of cases (median 3.91, 5th percentile 2.90). Values in that range, when seen in few replicates, are hard to tell from nonspecific mating.

* LGDSLRYYYAN | GKNNRPS | SSRDSSPNQVF = 3.30, 3.61, 2.44 (mean 3.11)
* EGDSLVYDYAN | GKNNRPS | SSRDSSGMQVF = 1.44, 1.51, 0.98 (mean 1.31)
* EGDSLRYYYAN | GKQNRPS | SSRDSSGYQVS = 2.97, 2.73, 2.72 (mean 2.81)
* EGDSLRYYYAN | GKNNRPS | KSRDSSFRQVF = 2.42, 2.11, 2.59 (mean 2.37)
* EGDSLRYRYAN | GKNNRPS | MSRDSSGSQVF = 1.37, 1.70, 1.10 (mean 1.39)
* EGDCLRYYYAV | GKNNRPS | SSRDSSGWQVF = nd, nd, 3.58
* EGDSRRYYYAN | GKNNRNS | SSRDSSGGQVF = nd, nd, nd
* EGDYLRYYYAN | GKNNRPS | SSRDSSGGQVF = 3.54, 3.33, 2.11 (mean 2.99)
* EGDRLRYYYAN | GKNNRPS | SARDSSGMQVF = 3.77, 3.61, 4.67 (mean 4.02)
* EGDSSRYYYAN | GKNNRPN | SSRDSSGCQVF = 3.78, 3.75, 3.78 (mean 3.77)
* EGPSLRYYYAN | GKVNRPS | SSRDSSGDQVF = 5.08, 5.63, 4.30 (mean 5.00)
* EYDSLRYYYAN | GKNNRPS | SSRDSSGKQVF = 3.08, 4.60, nd (mean 3.84)
* ECDSLRYYYAN | GKNNRPS | SSRDSSGCQVW = nd, nd, nd
* EGDSLRYYYAY | GENNRPS | SSRDSSGIQVF = 4.57, nd, nd
* EGDSLRYYYAN | GKNNRPS | SSRDSSGPPVF = 3.51, 3.01, nd (mean 3.26)
* EGDSLRYYYAN | GKNNRPS | SSRDSSGNQVF = 3.37, 2.51, 2.52 (mean 2.80)
* EGDSLRYYYAN | GKNNRPS | SSRASSGMQKF = nd, nd, 3.71
* EGDSLRLYYAN | GKNGRPS | SSRDSSGAQVF = 2.92, 3.23, 2.98 (mean 3.04)
* EGDSLRYYYAN | GKNNRPS | SSRDSSGQQVF = 2.68, 2.50, 2.27 (mean 2.48)
* EGDSLRYYYAN | GKNNRPS | SSRDSSGEQVF = 2.57, 2.09, 2.29 (mean 2.32)
* EGDSLAYYYAN | GKNNRPS | SSRDSSGNQVF = 2.60, 2.68, 2.35 (mean 2.54)
* EGDSLRYYYAN | LKNNRPS | SRRDSSGDQVF = nd, nd, nd
* EGDSLRYYYSN | GKNNRPS | SSRDVSGHQVF = 2.55, 2.47, 2.69 (mean 2.57)
* EGDSLRYYYAN | GKNNRDS | SSRDNSGTQVF = 2.70, 3.34, 2.83 (mean 2.96)
* EGDTLRYYYAN | GKNNRPS | SSRDSEGEQVF = nd, nd, nd
* EGDSLRYYYAL | GANNRPS | SSRDSSGRQVF = 2.34, 2.23, 2.47 (mean 2.35)
* EGDSLRYYYAN | GKNNRPS | SSRDSSGIGVF = 2.64, 2.28, 2.15 (mean 2.36)
* EGDSLRYYYAN | GHNNRPS | SSRDSSGLQPF = 2.44, 3.02, 3.48 (mean 2.98)
* EGDSLRYYYSN | GKNNRPS | SSRDSWGKQVF = 2.98, nd, nd
* EGDLLRYYYAN | GHNNRPS | SSRDSSGAQVF = 3.43, 4.08, nd (mean 3.75)
* EFDSLRYYYAN | GDNNRPS | SSRDSSGHQVF = 2.84, 3.60, 2.95 (mean 3.13)
* EGDSLREYYAN | GKNNRPS | SSRDGSGQQVF = 3.01, 2.60, 3.38 (mean 3.00)
* EGDSLRYYYAN | GKNNEPS | SSRSSSGQQVF = 2.90, 2.74, 2.09 (mean 2.58)
* EGDSAQYYYAN | GKNNRPS | SSRDSSGPQVF = 3.50, 3.34, nd (mean 3.42)
* EGNSLRYYYAN | GKNKRPS | SSRDSSGGQVF = 3.22, 4.66, nd (mean 3.94)
* EGDSLRYYYAN | GKNNRPS | FSRCSSGPQVF = 1.97, 2.13, 1.76 (mean 1.95)
* EGDLLRYYYAN | HKNNRPS | SSRDSSGTQVF = nd, nd, nd
* EGDSLRYYYAN | GKNNRPS | SSRDSHGPQVF = 2.04, 2.28, 1.96 (mean 2.09)
* EGDSLGYYYAN | GKNNRPS | SSRDSSGRQVL = 2.70, 2.49, 2.16 (mean 2.45)
* EGDSLRYYYAN | GKNNRPS | SPRQSSGIQVF = 2.38, 2.38, 2.76 (mean 2.51)
* EGCSLRYYYAN | GKNNRPA | SSRDSSGNQVF = 3.62, nd, 2.80 (mean 3.21)
* EQDSLRYYYAN | GKNNRPS | SQRDSSGPQVF = nd, 3.81, nd

Excerpt, the final 4 entries:

CDR-L1	CDR-L2	CDR-L3	log10 Kd (nM) by replicate	log10 Kd (nM), mean
EGDSLGYYYAN	GKNNRPS	SSRDSSGRQVL	2.70, 2.49, 2.16	2.45
EGDSLRYYYAN	GKNNRPS	SPRQSSGIQVF	2.38, 2.38, 2.76	2.51
EGCSLRYYYAN	GKNNRPA	SSRDSSGNQVF	3.62, nd, 2.80	3.21
EQDSLRYYYAN	GKNNRPS	SQRDSSGPQVF	nd, 3.81, nd	3.81

The measurements come from Engelhart et al. 2022 (doi:10.1038/s41597-022-01779-4) through the FLAb antibody collection.